Experimental data taken from patent publication US9108951B2, “Substituted 5,6,7,8-tetrahydro-1,6-naphthyridines as factor XIa inhibitors” (BRISTOL-MYERS SQUIBB COMPANY, priority 2011, dated 2015).

Chains of the proteins cited; added tags and fusions are not shown. Residues count along the entry.
UniProt P03951, 388-625 limits assumed: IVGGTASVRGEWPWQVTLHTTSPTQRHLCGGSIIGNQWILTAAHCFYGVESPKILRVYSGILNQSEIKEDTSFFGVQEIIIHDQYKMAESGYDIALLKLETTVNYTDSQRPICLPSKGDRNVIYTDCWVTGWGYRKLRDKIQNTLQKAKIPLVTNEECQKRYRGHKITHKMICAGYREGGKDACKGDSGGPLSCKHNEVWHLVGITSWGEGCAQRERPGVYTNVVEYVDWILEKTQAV
UniProt P03951, 19-387 partner limits assumed: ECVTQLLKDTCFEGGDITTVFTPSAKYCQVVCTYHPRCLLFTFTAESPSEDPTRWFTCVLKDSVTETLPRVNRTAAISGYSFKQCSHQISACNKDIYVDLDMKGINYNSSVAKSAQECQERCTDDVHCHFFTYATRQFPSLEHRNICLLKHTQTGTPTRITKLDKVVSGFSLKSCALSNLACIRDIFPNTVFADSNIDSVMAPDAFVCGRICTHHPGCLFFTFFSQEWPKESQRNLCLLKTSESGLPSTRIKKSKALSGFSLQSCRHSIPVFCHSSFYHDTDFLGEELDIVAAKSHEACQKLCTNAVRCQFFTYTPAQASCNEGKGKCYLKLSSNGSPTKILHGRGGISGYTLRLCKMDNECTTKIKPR

Biological target: purified human Factor XIa (Homo sapiens (Human), UniProt P03951)
Test: Factor XIa assay (chromogenic substrate hydrolysis, Ki)
Conditions: read-out: Factor XIa Ki, synthetic substrate S-2366, 50 mM HEPES pH 7.4

COC(=O)c1ccc(NC(=O)C2c3cc(C)ccc3CCN2C(=O)/C=C/c2cc(Cl)ccc2-n2cnnn2)cc1 (racemic)
Ki: 5.12 µM
